Target: T1, ErbB2/Her2 receptor on the cell surface (Homo sapiens, UniProt P04626)
T1 construct: HER2 high-expressing human breast cancer cells HCC1954, SK-BR-3, and HER2 low-expressing cells MCF7 were made into single cell suspensions; HTB-30 (SK-BR-3); HTB-22 (MCF7); host or cells: HCC1954, SK-BR-3, MCF7
Experiment: FACS affinity to cell surface ErbB2/Her2
Type: binding
Conditions: 6.25 nM; HCC1954, SK-BR-3 (HER2 high) and MCF7 (HER2 low) cells; compared with Pertuzumab
Procedure: 1) HER2 high-expressing human breast cancer cells HCC1954, SK-BR-3, and HER2 low-expressing cells MCF7 were made into single cell suspensions. 5×10^5 cells are used for each test. 6.25 nM Pertuzumab, P-LCCTL-HC, and DG102 were added respectively. Incubation was conducted for 60 min at 4° C. Washing was conducted with two repeats: adding 1 ml of PBS washing solution containing 1% BSA, conducting centrifuge at 1000 rpm for 5 min, removing the supernatant.
2) To cells incubated with Pertuzumab, P-LCCTL-HC or DG102, 100 µl diluted solution of FITC-goat anti-human IgG antibody was added, respectively. Incubation was conducted for 30 min at 4° C. in the dark. Washing was conducted with two repeats: adding 1 ml of washing solution, conducting centrifuge at 1000 rpm for 5 min, removing the supernatant. The cells were resuspended in 500 µl PBS, passed through a 300 mesh screen, stored on ice in the dark. FACS (fluorescence-activated cell sorting) assay were performed on CytoFLEX S (FIG. 2 to FIG. 4).

P-LCCTL-HC: based on Pertuzumab, GALPETGG introduced at the C-terminal of the light chain (SEQ ID NO: 1, 2)
affinity to the ErbB2/Her2 receptor on the cell surface (FACS): do not show significant difference

From patent US20230256108A1, “A DRUG CONJUGATE AND APPLICATIONS THEREOF” (GENEQUANTUM HEALTHCARE (SUZHOU) CO., LTD., priority 2019, published 2023)
